Tumour response data for one substance are collected here from patent publication US11192890B2, “FGFR kinase inhibitors and pharmaceutical uses” (AUCKLAND UNISERVICES LIMITED, priority 2017, dated 2021).

The subject of the assay is SNU-16 (FGFR2-amplified) gastric cancer xenograft. As to the kind of experiment: Anti-tumour activity, SNU-16 xenograft. It is filed as in vivo, NIH-III nude mice. The following applies: 6.25 mg/kg, qdx12, PO.

Regarding AZD4547 [reference compound], the tumour response entry was “progressive growth”.
